Experimental data: patent US20240092745A1, “DRUGS AND COMPOSITIONS FOR THE TREATMENT OF OCULAR DISORDERS” (Graybug Vision, Inc., priority 2017, published 2024)

Assay: Determination of drug solubility in aqueous and organic solvent;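 also: solid drug suspended at 50 mg/mL nominal in each solvent, vortexed and sonicated, then dissolved concentration in filtered supernatant quantified by HPLC against a calibration curve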
Format: physicochemical
Conditions: for Solubility Water: drug added to 50 mg/mL

Solubility DCM (Table 3B)	Solubility DMSO (Table 3B)	Solubility Water (Table 3B)	Solubility DCM (Table 3A)	Solubility DMSO (Table 3A)	Solubility Water (Table 3A)	Substance
>50 mg/mL	>50 mg/mL	<1.0 mg/mL	–	–	–	Dorzolamide-PLA (n = 5)
–	–	–	>50 mg/mL	>50 mg/mL	<0.1 mg/mL	dorzolamide-stearyl PLA (n=8) [Dorzolamide-Stearyl PLA (n = 8)]
